# scFv variants of Ab-91 (heavy chain) against a SARS-CoV-2 spike peptide

The measurements come from Engelhart et al. 2022 (doi:10.1038/s41597-022-01779-4) through the FLAb antibody collection.

Target: peptide PDVDLGDISGINAS, taken from heptad repeat 2 (HR2) of SARS-CoV-2 spike.

Parent: Ab-91, a human scFv built as VL, three GGGGS repeats, VH. Only the CDRs of the heavy chain vary.
VL: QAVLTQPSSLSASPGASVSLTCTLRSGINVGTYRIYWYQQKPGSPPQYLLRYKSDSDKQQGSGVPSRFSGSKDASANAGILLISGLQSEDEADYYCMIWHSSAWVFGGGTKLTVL
VH: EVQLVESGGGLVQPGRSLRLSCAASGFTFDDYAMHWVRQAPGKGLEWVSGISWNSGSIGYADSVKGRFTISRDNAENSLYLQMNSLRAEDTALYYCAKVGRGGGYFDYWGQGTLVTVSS

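Phage display of a naive human antibody library on the peptide gave the parent. Library AAYL51 holds single substitutions and randomly drawn double and triple substitutions in the CDRs. AlphaSeq pools MATa yeast showing the antibodies with MATalpha yeast showing the peptide. Mating (16 h, 30 °C) was followed by selection of diploids and sequencing of their barcodes. A regression on co-assayed BCL2-family reference pairs converts the normalised counts of each replicate to an apparent Kd. There are three technical replicates.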

The parent's heavy chain CDRs are GFTFDDYAMH, GISWNSGSIGYADSVK, VGRGGGYFDY; each variant's own CDRs replace them letter for letter. The read-out is the apparent dissociation constant on a log10 scale (nM): the lower, the stronger. Replicates are averaged; those with no signal do not enter the mean. Where no diploid with the target was found in any replicate, the entry reads "nd": below detection, most likely a poor binder, though not proof of it. As a blank, each scFv also met three strains without target: over library AAYL51, 21% of these pairings were detected, typically at 4.54 and seldom below 3.26.

CDR-H1,CDR-H2,CDR-H3,mean log10 Kd (nM),replicates with signal
GFTFDDYAMH,GISWNSGSIGYADSVK,VGRGGGVFDH,1.77,3/3
GDTMDDYAMH,GISWNSGSIGYADSVK,VGRGGGYFDY,4.74,2/3
GFTADDYAMH,GFSWNSGSIGYADSVK,VGRGGGYFSY,nd,0/3
GFTFDDYPHH,GISWNSGSIGYADSVK,VGRGIGYFDY,3.13,1/3
GFTFDDYAMH,GISWNSGSIGYADVMK,VGPGGGYFDY,3.69,3/3
GFTFRDYAMH,GISWNSGSIGYADMVK,VGRGGGYFDG,0.55,3/3
GFTFCDYSMH,GISWNSGSIGYADSVK,VGRGIGYFDY,5.66,1/3
GFRFDDYAMH,GQSWNSGSIGYADSVK,VGRGGGYFDY,5.31,3/3
GFTFDDYAMH,GISGNSGSPGYADSVK,VGRGGGYMDY,5.58,2/3
GFTFDDYTMF,GISWNSGSIGYADSVK,SGRGGGYFDY,nd,0/3
GFTKDDYAMH,GISWNSGSIGYADSVK,VGRGGGLFEY,5.13,3/3
LFTFCDYAMH,GISWNSGSIGYLDSVK,VGRGGGYFDY,3.77,1/3
GYTFDDYAMH,GISWPSGSIGYADSVP,VGRGGGYFDY,nd,0/3
HFTFDDYAMH,GISWNSGSIGYADSVQ,VGRGGGHFDY,4.63,2/3
GFTFDDYAMH,GSSWRSGSIGYADDVK,VGRGGGYFDY,5.32,3/3
QFTFDDYAMI,GISWNSGSIGYADSVK,VGRGGGYFDC,nd,0/3
GFTFDDYAMH,GISARSGSIGYAMSVK,VGRGGGYFDY,0.91,3/3
GFTFDGYASH,GISWNSGSYGYADSVK,VGRGGGYFDY,4.72,2/3
GFTFRDYAMC,GISWNSGSIGYADSVI,VGRGGGYFDY,nd,0/3
GFTFDDYAMH,GISWNSGSMGTADSVK,VGRGGGYFDY,2.76,3/3
GFTFDRYAMM,GISWNSGSILYADSVK,VGRGGGYFDY,5.45,2/3
GFTFDDYAMH,CISWNSLSIGYPDSVK,VGRGGGYFDY,nd,0/3
GFTFDDQAMH,GISWNSGSIQYADSVK,VGRGGGYFDY,nd,0/3
GFSFDDYAMH,GISWNSGIIGYADSVK,VGRGAGYFDY,nd,0/3
GFTFDDYVMP,GISWNSGSIGYADSVK,VDRGGGYFDY,nd,0/3
GFTFWAYAMH,GISWNSGSIGYAPSVK,VGRGGGYFDY,2.02,3/3
GFTFDDYAMH,GISWNSESIGYLDSVK,VGQGGGYFDY,3.83,1/3
GSTFDDYAMH,GISWNSGSIGYADSVK,ISRGGGYFDY,5.06,2/3
GFNFDDYAMH,GISWNGGKIGYADSVK,VGRGGGYFDY,2.64,2/3
GWTFDDYAMH,GISWNSGWIGYADSTK,VGRGGGYFDY,4.50,2/3
GPQRDDYAMH,GISWNSGSIGYADSVK,VGRGGGYFDY,4.54,1/3
GITFDDWAMH,GISWNSGMIGYADSVK,VGRGGGYFDY,3.85,1/3
GFTFDDYAMH,GISMNSGSIGYADSVK,VGFGAGYFDY,nd,0/3
GFTFMDYAMH,GISWNSGSIGYADSVK,FGRGGGAFDY,5.73,2/3
GFTFQDYAMH,GISWNSGSIGYADRVY,VGRGGGYFDY,0.80,3/3
GFQFRDTAMH,GISWNSGSIGYADSVK,VGRGGGYFDY,0.07,3/3
GFTFEDYAMH,GIFRNSGSIGYADSVK,VGRGGGYFDY,5.07,2/3
EFTFDDYAMH,IISWNSGSIGYADSVK,VGRGGGYVDY,nd,0/3
HFTADDYAMH,GISWNSGSIGYADSVK,VGRGGMYFDY,nd,0/3
GFTFDDYAMH,GISWNSGSIMYADSVK,VGRGLFYFDY,nd,0/3
GFTFDDYAMH,GISINSGSIGYADSVK,KGCGGGYFDY,2.02,3/3
GFVFDDYAMH,GISWNSTSIGWADSVK,VGRGGGYFDY,4.58,2/3
GGTFSDYAMH,GISWNSGSIGYADSVK,VGRGGGYFDY,0.45,3/3
GFTFDDYAMN,LISWNSGSIGYAASVK,VGRGGGYFDY,3.45,1/3
GFTFDDTAMH,GISWNSGLIGYNDSVK,VGRGGGYFDY,4.26,3/3
GFTFDDYAMN,GISWNSGSIGYADSVK,VGRGGWYWDY,5.03,1/3
GFTFDDYAMH,GISWNSGSIGYADSVK,VGRGCGYFDI,1.75,3/3
GFTFDDAAMH,GISDNSGSIGYADLVK,VGRGGGYFDY,3.51,1/3
GTTFDDYAMC,GISWNSGSYGYADSVK,VGRGGGYFDY,nd,0/3
GFTFDDYAMH,GISWNSTSIGYADSRK,VGRGGGYFDV,nd,0/3
GFTFDDYAPH,GISPNSGSIGYADSVK,TGRGGGYFDY,nd,0/3
GFTFDVYAMH,GISWNSGSIGYWDSVK,VGRGGAYFDY,4.56,1/3
GFTFDDYAMH,GISWNSGSIGLAASVK,VGRGGGYDDY,nd,0/3
GFTFDDPAMH,GISWNMGSIGYADSVS,VGRGGGYFDY,4.58,2/3
GFTFDDYAMH,GISWGSGSIGYADSVK,FGRGGGYFDE,2.40,3/3
GFTFDDYTMH,GIDWNSGSIGYADSVR,VGRGGGYFDY,nd,0/3
GFTFDDYAMH,GISWNSGSIGYADSVK,VLRGGGYWDD,4.15,2/3
GFTFDDYAMH,VISWNSGSRGYADSVK,VGRGGGYYDY,5.31,2/3

Again, the first 7 entries without any signal:

CDR-H1,CDR-H2,CDR-H3,mean log10 Kd (nM),replicates with signal
GFTADDYAMH,GFSWNSGSIGYADSVK,VGRGGGYFSY,nd,0/3
GFTFDDYTMF,GISWNSGSIGYADSVK,SGRGGGYFDY,nd,0/3
GYTFDDYAMH,GISWPSGSIGYADSVP,VGRGGGYFDY,nd,0/3
QFTFDDYAMI,GISWNSGSIGYADSVK,VGRGGGYFDC,nd,0/3
GFTFRDYAMC,GISWNSGSIGYADSVI,VGRGGGYFDY,nd,0/3
GFTFDDYAMH,CISWNSLSIGYPDSVK,VGRGGGYFDY,nd,0/3
GFTFDDQAMH,GISWNSGSIQYADSVK,VGRGGGYFDY,nd,0/3